{"source": "patent US6979675B2", "about": "“Treatment of cancer with 2-deoxyglucose” (Threshold Pharmaceuticals, Inc., priority 2003, dated 2005)", "details": "other two groups (2000 and 4000 mg/kg/dose), bid×5", "protocol": "The maximum tolerated dose determination for this study was conducted using female nude mice (nu/nu) between 5 and 6 weeks of age weighing approximately 20 g (Harlan, Inc., Madison, Wis.). Dosing began on Day 1. […] A 20 mL/kg dose volume was used to achieve doses of 2000, 4000, 6000, 8000, and 9000 mg/kg/dose. Individual mouse weights in grams were recorded twice weekly throughout the study. The average weight per group was calculated, and weight gain or loss was determined by comparing the current Day's average to the Day 1 average for that same group. The study was terminated on Day 21.", "data": [{"smiles": "O=CC[C@@H](O)[C@H](O)[C@H](O)CO", "note": "[2-DG, 2-deoxy-D-glucose]", "values": [{"measurement": "deaths or weight loss", "value": "No deaths or weight loss"}]}]}
